According to patent publication US20170183318A1, “AMIDE COMPOUNDS, METHODS FOR PREPARATION, AND USE THEREOF AS AGENTS FOR THE TREATMENT AND PREVENTION OF DISEASES CAUSED BY RNA- AND/OR DNA-CONTAINING VIRUSES, AND CONCOMITANT DISEASES” (OBSCHESTVO S OGRANICHENNOI OTVETSTVENNOSTIYU …, priority 2014, published 2017):
Where two headings read alike, the source gives them in different places.

System: human virus hRSV
Experiment: Antiviral activity against mouse-adapted RS virus (body weight; viral titer in lungs titrated in Hep-2 cells)
Format: in vivo, mice
Conditions: for log reduction at 30 mg/kg: human respiratory syncytial virus, HEp-2, po

In the case of NC(=O)c1ncn([C@@H]2O[C@H](CO)[C@@H](O)[C@H]2O)n1 [Ribavirin, reference compound], the “hRSV in the lungs of mice, Day 5, lg” value (day 5, 10% lung suspension titrated in Hep-2 cells (TCID), compounds 30 mg/kg, Ribavirin 40 mg/kg) is reported as 2.1 ± 0.12 lg, the “Body weight of the mice on day 5 after infection with hRSV (M ± SD)” value (day 5, compounds 30 mg/kg, Ribavirin 40 mg/kg, orally once daily for 5 days, n = 6) is reported as 16.20 ± 0.24 and the “hRSV in the lungs of mice, Day 7, lg” value (day 7, 10% lung suspension titrated in Hep-2 cells (TCID), compounds 30 mg/kg, Ribavirin 40 mg/kg) is reported as 1.15 ± 0.12 lg. The “Body weight of the mice on day 7 after infection with hRSV (M ± SD)” value (day 7, compounds 30 mg/kg, Ribavirin 40 mg/kg, orally once daily for 5 days, n = 6) was 17.23 ± 0.22, the log reduction at 30 mg/kg (120 h, read-out: Suppression of the reproduction of hRSV in the lungs of mice, Day 5, Δlg) was 2.4 ± 0.12 and the log reduction at 30 mg/kg (168 h, read-out: Suppression of the reproduction of hRSV in the lungs of mice, Day 7, Δlg) was 2.4 ± 0.12.
